Biological target: 5-hydroxytryptamine receptor 2A (Homo sapiens, UniProt P28223)
Test: Displacement of [3H]ketanserin from 5HT2A receptor expressed in NIH3T3 cells
Format: cell-based

Chains of the proteins cited; added tags and fusions are not shown.
UniProt P28223, whole entry: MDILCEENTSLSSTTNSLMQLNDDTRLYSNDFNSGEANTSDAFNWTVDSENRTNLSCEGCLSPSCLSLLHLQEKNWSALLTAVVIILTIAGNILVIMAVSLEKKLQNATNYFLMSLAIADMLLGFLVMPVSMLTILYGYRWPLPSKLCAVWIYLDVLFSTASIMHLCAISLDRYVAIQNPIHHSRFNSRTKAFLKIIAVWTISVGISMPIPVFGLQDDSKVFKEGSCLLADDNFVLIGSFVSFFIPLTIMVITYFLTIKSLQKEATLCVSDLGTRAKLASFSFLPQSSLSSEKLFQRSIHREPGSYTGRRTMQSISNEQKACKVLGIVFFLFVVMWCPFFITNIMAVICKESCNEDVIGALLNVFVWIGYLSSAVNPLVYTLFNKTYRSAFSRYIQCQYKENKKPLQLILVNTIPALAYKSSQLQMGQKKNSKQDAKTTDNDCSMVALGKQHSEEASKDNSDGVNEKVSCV

CCCCCCc1ccc2c(c1)Cc1cc(OC)ccc1C2CN (stereo unspecified)
Ki: 43 nM
